Measurements as given in patent US20230131993A1 (priority 2020, published 2023).

Assay: Oxipres stability test of DragoCalm: Avenanthramide L
Conditions: before and after Oxipres treatment, additive 0.10 %

Degradation of Avenanthramide L (%): 11.1%
SMILES: CC(=O)c1ccc(O)cc1 [4-Hydroxyacetophenone]
